US20240158370A1, “CK1 alpha AND DUAL CK1 alpha / GSPT1 DEGRADING COMPOUNDS” (Innovo Therapeutics, Inc., priority 2022, published 2024)

Amino acid sequences for entries named in this document (tags omitted).
UniProt P48729, whole entry: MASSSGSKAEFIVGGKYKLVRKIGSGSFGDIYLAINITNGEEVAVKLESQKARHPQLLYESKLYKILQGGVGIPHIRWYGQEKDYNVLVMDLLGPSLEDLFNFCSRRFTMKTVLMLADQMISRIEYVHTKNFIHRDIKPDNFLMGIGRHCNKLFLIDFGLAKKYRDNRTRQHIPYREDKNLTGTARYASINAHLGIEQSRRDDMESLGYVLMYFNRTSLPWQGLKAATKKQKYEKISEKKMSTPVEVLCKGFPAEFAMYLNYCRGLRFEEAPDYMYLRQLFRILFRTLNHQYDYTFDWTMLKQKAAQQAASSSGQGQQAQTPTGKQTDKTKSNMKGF
UniProt Q96SW2, whole entry: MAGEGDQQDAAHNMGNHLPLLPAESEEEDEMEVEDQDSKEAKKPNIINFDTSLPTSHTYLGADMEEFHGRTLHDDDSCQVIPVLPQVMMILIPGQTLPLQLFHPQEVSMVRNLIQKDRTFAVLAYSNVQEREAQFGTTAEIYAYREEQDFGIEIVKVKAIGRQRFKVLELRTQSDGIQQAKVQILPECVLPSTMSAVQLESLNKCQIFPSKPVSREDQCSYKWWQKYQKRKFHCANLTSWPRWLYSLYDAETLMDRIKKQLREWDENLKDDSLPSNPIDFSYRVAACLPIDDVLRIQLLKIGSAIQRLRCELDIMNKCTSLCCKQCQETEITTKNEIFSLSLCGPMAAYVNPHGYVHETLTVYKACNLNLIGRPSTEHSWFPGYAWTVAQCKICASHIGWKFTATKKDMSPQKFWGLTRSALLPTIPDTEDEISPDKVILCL
UniProt P15170, whole entry: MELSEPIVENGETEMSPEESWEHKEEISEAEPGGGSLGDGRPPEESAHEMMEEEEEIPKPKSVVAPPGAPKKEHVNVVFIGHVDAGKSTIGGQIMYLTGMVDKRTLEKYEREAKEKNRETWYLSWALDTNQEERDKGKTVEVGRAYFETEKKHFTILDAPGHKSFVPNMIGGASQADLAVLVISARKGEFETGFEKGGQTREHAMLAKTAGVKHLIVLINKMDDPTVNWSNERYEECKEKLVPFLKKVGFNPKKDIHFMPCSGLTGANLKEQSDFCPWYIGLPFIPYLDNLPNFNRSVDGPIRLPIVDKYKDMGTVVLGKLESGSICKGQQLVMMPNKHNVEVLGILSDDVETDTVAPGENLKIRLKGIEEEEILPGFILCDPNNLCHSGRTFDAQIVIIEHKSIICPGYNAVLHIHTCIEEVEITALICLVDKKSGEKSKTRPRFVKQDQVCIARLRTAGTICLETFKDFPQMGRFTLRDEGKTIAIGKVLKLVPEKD
UniProt Q16531, whole entry partner: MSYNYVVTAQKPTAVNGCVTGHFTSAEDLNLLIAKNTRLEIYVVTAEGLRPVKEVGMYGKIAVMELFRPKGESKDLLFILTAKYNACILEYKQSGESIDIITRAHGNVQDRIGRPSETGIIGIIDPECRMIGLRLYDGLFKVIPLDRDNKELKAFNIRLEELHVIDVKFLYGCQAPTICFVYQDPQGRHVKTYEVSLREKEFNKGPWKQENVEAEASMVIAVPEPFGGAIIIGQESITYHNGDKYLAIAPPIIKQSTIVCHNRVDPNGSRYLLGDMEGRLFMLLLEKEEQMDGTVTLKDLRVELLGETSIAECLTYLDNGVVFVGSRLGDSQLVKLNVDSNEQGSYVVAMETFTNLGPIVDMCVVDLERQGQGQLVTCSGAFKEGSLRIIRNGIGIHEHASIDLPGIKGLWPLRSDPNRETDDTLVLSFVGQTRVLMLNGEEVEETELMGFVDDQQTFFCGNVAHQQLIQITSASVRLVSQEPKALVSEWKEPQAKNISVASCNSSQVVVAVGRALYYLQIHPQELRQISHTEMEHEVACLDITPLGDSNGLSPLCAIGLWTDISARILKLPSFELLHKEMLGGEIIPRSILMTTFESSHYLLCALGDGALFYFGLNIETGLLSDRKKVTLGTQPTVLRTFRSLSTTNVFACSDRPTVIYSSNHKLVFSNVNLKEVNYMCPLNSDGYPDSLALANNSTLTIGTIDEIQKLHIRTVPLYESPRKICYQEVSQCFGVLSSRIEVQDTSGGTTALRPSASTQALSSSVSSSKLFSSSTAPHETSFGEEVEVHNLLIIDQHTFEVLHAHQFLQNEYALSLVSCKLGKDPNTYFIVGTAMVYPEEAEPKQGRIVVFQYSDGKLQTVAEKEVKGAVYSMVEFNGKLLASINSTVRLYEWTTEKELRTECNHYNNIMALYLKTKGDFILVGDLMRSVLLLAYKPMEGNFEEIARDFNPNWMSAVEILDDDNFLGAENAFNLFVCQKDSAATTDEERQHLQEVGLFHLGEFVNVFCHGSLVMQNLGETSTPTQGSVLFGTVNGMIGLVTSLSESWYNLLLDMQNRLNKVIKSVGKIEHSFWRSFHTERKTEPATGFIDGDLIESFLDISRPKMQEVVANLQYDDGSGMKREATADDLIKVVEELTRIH

How the values were obtained:
[1] = target: CK1α (Homo sapiens, UniProt P48729+Q96SW2); assay: HiBiT degradation assay, CK1α, Procedure A; conditions: for DC50: read-out: CK1α DC50, six hours incubation; for CK1α Ymin: six hours incubation
[2] = target: GSPT1 (Homo sapiens, UniProt P15170+Q96SW2); assay: HiBiT degradation assay, GSPT1, Procedure A; conditions: for DC50: read-out: GSPT1 DC50, six hours incubation; for GSPT1 Ymin: six hours incubation

DC50 [1] [nM] | CK1α Ymin [1] | DC50 [2] [nM] | GSPT1 Ymin [2] | SMILES
< 25 | E (E = >25-75% remaining) | < 25 | F (F = >75-100% remaining) | Cn1cnc(-c2ccc3c(c2)CN(C2CCC(=O)NC2=O)C3=O)c1-c1ccc(C(F)(F)F)cc1 (stereo not drawn)
< 25 | C (C = 0-10% remaining) | < 25 | E (E = >25-75% remaining) | Cn1cnc(-c2ccc3c(c2)CN(C2CCC(=O)NC2=O)C3=O)c1-c1ccc(-c2cccnc2)cc1 (stereo not drawn)

SMILES | DC50 [1] [nM] | CK1α Ymin [1] | DC50 [2] [nM] | GSPT1 Ymin [2]
Cn1c(-c2ccc3c(c2)CN(C2CCC(=O)NC2=O)C3=O)cnc1C1CCCCC1 (stereo not drawn) | > 25 | E (E = >25-75% remaining) | < 25 | F (F = >75-100% remaining)
